The numbers were not newly measured in patent US20030158213A1, “Xanthine oxidase inhibition as a strategy to alleviate oxidative impairment of vascular function” (priority 2001, published 2003), which cites them from elsewhere.

In data set [1] the target is T1, nitric oxide synthase (Homo sapiens, UniProt P29474).
T1 construct: host or cells: human coronary and forearm vasculature, in vivo infusion of L-NMMA
Particulars: infusion into the brachial artery; cited from earlier work.

Data set [2] concerns the target T1, nitric oxide synthase. Particulars: intracoronary infusion; patients without atherosclerosis or its risk factors; cited from earlier work.

Each structure is given as a SMILES string.

On to `CNC(=N)NCCC[C@H](N)C(=O)O` [L-NMMA, N^G-monomethyl-L-arginine], for which the forearm blood flow result on nitric oxide synthase [1] is “significantly reduced forearm blood flow”. For the same molecule, the “coronary epicardial tone and coronary blood flow” value at nitric oxide synthase [2] was “caused coronary epicardial constriction and reduced coronary blood flow”.
